The text below walks through data of ChEMBL document CHEMBL1147659, “Structure-based drug design of a novel family of PPARgamma partial agonists: virtual screening, X-ray crystallography, and in vitro/in vivo biological activities” (J Med Chem, 2006).

Sequences of proteins named here, by UniProt entry; tags and fusion partners are left off. A change or cut given only in a name is not applied to a line headed by its entry.
UniProt P37231: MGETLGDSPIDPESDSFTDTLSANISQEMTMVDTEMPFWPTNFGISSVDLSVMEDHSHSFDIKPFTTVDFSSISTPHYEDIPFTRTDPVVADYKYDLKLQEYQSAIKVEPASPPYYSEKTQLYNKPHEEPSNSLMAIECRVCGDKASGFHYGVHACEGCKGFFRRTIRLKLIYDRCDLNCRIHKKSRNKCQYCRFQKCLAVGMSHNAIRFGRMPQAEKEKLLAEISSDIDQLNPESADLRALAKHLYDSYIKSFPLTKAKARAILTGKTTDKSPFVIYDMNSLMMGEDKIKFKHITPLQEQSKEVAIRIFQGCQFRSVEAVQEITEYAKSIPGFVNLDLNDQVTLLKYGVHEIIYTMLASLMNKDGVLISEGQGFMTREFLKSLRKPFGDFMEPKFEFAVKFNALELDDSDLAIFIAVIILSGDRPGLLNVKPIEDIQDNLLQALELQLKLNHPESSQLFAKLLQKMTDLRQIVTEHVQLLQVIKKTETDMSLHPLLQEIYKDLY

The target of this test is Peroxisome proliferator-activated receptor gamma (Homo sapiens, UniProt P37231). Description: Displacement of [3H]rosiglitazone from PPARgamma by SPA.

Structures are written as SMILES.

Compound `O=S(=O)(Nc1cc(-c2cccs2)nn1-c1ccc(F)cc1)c1cc(C(F)(F)F)cc(C(F)(F)F)c1` came in with an IC50 of 22.7 nM.
